# Test results: ChEMBL document CHEMBL1287644, “The novel benzopyran class of selective cyclooxygenase-2 inhibitors. Part III: the three microdose candidates” (Bioorg Med Chem Lett, 2010)
# Sequences of proteins named here, by UniProt entry; tags and fusion partners are left off.
# UniProt P23219, whole entry: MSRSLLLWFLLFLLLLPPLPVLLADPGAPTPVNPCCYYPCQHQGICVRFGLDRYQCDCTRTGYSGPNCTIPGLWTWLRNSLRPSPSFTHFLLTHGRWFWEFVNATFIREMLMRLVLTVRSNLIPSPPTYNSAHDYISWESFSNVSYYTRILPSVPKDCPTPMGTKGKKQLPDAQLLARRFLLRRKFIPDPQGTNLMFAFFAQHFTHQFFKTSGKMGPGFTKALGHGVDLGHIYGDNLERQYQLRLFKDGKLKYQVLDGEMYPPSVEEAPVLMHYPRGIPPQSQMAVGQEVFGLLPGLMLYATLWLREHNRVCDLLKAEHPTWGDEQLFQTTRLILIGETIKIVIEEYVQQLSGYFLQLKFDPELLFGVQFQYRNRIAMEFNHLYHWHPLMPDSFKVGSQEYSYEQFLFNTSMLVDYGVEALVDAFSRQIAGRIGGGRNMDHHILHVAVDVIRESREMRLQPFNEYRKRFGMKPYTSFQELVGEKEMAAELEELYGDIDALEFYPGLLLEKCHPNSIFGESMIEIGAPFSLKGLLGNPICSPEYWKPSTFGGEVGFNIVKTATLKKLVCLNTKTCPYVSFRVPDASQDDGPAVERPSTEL
# Target: Prostaglandin G/H synthase 1 (Homo sapiens, UniProt P23219)
# Test: Inhibition of human COX-1
row,SMILES,IC50 [µM]
1,Cc1c(Cl)cc2c(c1C)O[C@H](C(F)(F)F)C(C(=O)O)=C2,4.99
2,Cc1c(Cl)cc2c(c1C)OC(C(F)(F)F)C(C(=O)O)=C2 (configuration not stated),36.3
